From patent publication US11999723B2, “Pyrazole-containing macrophage migration inhibitory factor inhibitors” (priority 2018, dated 2024)

Amino acid sequences for entries named in this document (tags omitted). Residues count along the entry.
UniProt P14174, 2-115 limits assumed: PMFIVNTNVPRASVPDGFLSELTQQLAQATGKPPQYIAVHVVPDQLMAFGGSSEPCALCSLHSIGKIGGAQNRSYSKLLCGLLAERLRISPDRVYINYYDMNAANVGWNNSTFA

Target: MIF (Homo sapiens (Human), UniProt P14174)
Assay: HPP tautomerase assay (inhibition of the tautomerase activity of MIF)
Type: biochemical
Conditions: read-out: Ki values; literature compounds tested in a tautomerase inhibition assay

COc1ccc(N2Cc3ccc(O)cc3OC2=O)cc1
Ki: 30 nM
